Chains of the proteins cited; added tags and fusions are not shown.
UniProt P48039, whole entry: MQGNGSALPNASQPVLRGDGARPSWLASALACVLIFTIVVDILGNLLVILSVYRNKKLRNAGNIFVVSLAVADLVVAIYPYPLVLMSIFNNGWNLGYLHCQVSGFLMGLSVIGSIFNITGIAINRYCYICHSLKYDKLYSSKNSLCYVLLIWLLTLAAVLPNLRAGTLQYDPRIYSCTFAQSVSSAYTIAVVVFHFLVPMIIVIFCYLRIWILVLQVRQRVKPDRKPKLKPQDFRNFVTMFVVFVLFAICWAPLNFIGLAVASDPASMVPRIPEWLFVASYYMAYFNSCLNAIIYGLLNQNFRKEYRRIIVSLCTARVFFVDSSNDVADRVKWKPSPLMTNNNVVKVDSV

In patent publication US5856529A, “Benzofuran and dihydrobenzofuran melatonergic agents” (Bristol-Myers Squibb Company, priority 1997, dated 1999):

Biological target: ML1a human melatonin receptor (Homo sapiens, UniProt P48039)
Experiment: Melatonergic Receptor Binding Activity (2-[125I]-iodomelatonin, membranes of NIH-3T3 cells expressing ML1a receptor)
Details: read-out: Melatonin Binding Affinity (IC50), 37° C. for 1 hour
Method: Melatonergic Receptor Binding Activity
(a) TME=50 mM Tris buffer containing 12.5 mM MgCl2, and 2 mM EDTA, pH 7.4 at 37° C. with concentrated HCl.
(b) Wash buffer: 20 mM Tris base containing 2 mM MgCl2, pH 7.4 at room temperature.
(c) 10^-4 M melatonin (10^-5 M final concentration).
(d) 2-[^125 I]-iodomelatonin, […] final concentration
The melatonin ML1a receptor cDNA was subcloned into pcDNA3 and introduced into NIH-3T3 cells using Lipofectamine. Transformed NIH-3T3 cells resistant to geneticin (G-418) were isolated, and single colonies expressing high levels of 2[^125 I]-iodomelatonin binding were isolated. Cells are maintained in DMEM supplemented with 10% calf serum and G-418 (0.5 g/liter). Cells are grown to confluency in T-175 flasks, scraped using Hank's balanced salt solution, and frozen at -80° C. For preparing membrane homogenates, pellets are thawed on ice, and resuspended in TME buffer in the presence of 10 μg/ml aprotinin and leupeptin, and 100 μM phenylmethylsulfonylfluoride. The cells were then homogenized using a dounce homogenizer, and centrifuged. The resulting pellet was resuspended with dounce homogenizer in TME (supplemented with the above protease inhibitors) and frozen. On the day of assay, the small aliquot was thawed on ice and resuspended in ice cold TME (1:50-1:100 v/v) and held on ice until assayed.
3. Incubation: 37° C. for 1 hour. […]

- IC50: 100 to 250 nM
SMILES: CCNC(=O)NCC1CC1c1cccc2c1OCCO2 (stereo not shown)
